# Reference: US20180228743A1, “COMPOUNDS AND METHODS OF PROMOTING MYELINATION” (Case Western Reserve University, priority 2016, published 2018)
# Tested on: EpiSC-derived OPCs
# Experiment: High-throughput screening of 3,000 bioactive small molecules for MBP+ oligodendrocyte formation from OPCs
# Type: cell-based, mouse
# Settings: 2 μM, 72 h
smiles,measurement,setting,value
"Cl.Clc1ccc(N2CCN(Cc3c[nH]c4ncccc34)CC2)cc1 [L-745,870 hydrochloride]",cell viability (% relative to DMS0),,92.82%
same,fold-change in % MBP + oligodendrocytes,relative to DMSO controls of the same plate,3.49
